Data taken from US6433001B1, “1H-indole-3-glyoxylamide sPLA2 inhibitors” (Eli Lilly and Company, priority 1994, dated 2002).

Key:
[1] = target: T1, Human Secreted Phospholipase A2 (Homo sapiens, UniProt P14555); test: guinea pig lung pleural strip tissue test, sPLA2-induced contraction; format: cell-based
T1 sequence (P14555 21-144): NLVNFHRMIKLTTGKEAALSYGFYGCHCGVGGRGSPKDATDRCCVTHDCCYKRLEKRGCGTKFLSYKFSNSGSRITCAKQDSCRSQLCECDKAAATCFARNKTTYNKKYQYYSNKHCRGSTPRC
Source text: Male Hartley strain guinea pigs (500-700 g) were killed by cervical dislocation and their heart and lungs removed intact and placed in aerated (95% O2:5% CO2) Krebs buffer. Dorsal pleural strips (4×1×25 mm) were dissected from intact parenchymal segments (8×4×25 mm) cut parallel to the outer edge of the lower lung lobes. Two adjacent pleural strips, obtained from a single lobe and representing a single tissue sample, were tied at either end and independently attached to a metal support rod. One rod was attached to a Grass force-displacement transducer (Model FTO3C, product of Grass Medical Instruments Co., Quincy, Mass., USA). […] All tissues were placed in 10 ml jacketed tissue baths maintained at 37° C. […]
Initially tissues were challenged 3 times with KCl (40 mM) to test tissue viability and to obtain a consistent response. […] To minimize variability between tissues obtained from different animals, contractile responses were expressed as a percentage of the maximal response obtained with the final KCl challenge. […]
Data from different experiments were pooled and presented as a percentage of the maximal KCl responses (mean±S.E.). To estimate the drug induced rightward shifts in the concentration response curves, the curves were analyzed simultaneously using statistical nonlinear modeling methods similar to those described by Waud (1976), Equation 26, p. […]

[2] = target: T1, Human Secreted Phospholipase A2; test: chromogenic assay for inhibitors of recombinant human secreted phospholipase A2; format: biochemical; conditions: diheptanoyl thio-PC substrate, pH 7.5, 40° C. for 30 minutes, absorbance at 405 nanometers; read-out: Inhibition of human secreted PLA2 IC50 ± mean deviation (3-4 tests)
Protocol: The following chromogenic assay procedure was used to identify and evaluate inhibitors of recombinant human secreted phospholipase A2. The assay described herein has been adapted for high volume screening using 96 well microtiter plates.
Adjust pH to 4.5 with acetic acid
DTNB—5,5′-dithiobis-2-nitrobenzoic acid
RACEMIC DIHEPTANOYL THIO—PC
racemic 1,2-bis(heptanoylthio)-1,2-dideoxy-sn-glycero-3-phosphorylcholine
TRITON X-100™ prepare at 6.249 mg/ml in reaction buffer to equal […].
A measured volume of racemic dipheptanoyl thio PC supplied in chloroform at a concentration of 100 mg/ml is taken to dryness and redissolved in 10 millimolar TRITON X-100™ nonionic detergent aqueous solution.
Reaction Buffer is added to the solution, then DTNB to give the Reaction Mixture.
The reaction mixture thus obtained contains 1 mM diheptanoly thio-PC substrate, 0.29 mm Triton X-100™ detergent, and 0.12 mm DTMB in a buffered aqueous solution at pH 7.5.
1. Add 0.2 ml reaction mixture to all wells;
2. Add 10 ul test compound (or solvent blank) to appropriate wells, mix 20 seconds;
3. […]
5. Read absorbance of wells at 405 nanometers with an automatic plate reader.
All compounds were tested in triplicate. […] In all cases, % inhibition measured at 405 nanometers generated by enzyme reactions containing inhibitors relative to the uninhibited control reactions was determined. […]

Work on `CCc1c(C(=O)C(N)=O)c2c(OCC(=O)O)cccc2n1Cc1ccccc1` [Example 9, [[3-(2-Amino-1,2-dioxoethyl)-2-ethyl-1-(phenylmethyl)-1H-indol-4-yl]oxy]acetic Acid] yielded a Kb [1] of 88.7 ± 18.2 nM and an IC50 [2] of 9 ± 1.73 nM.
